Reference: patent US10538487B2, “Sulfonylureas and related compounds and use of same” (priority 2015, dated 2020)

Experiments:
[1] = in vivo; details: mouse, mice, oral gavage at 20 mg/kg, read-out: Brain Concentration
[2] = Compound levels in blood plasma of mice after oral gavage (LC-MS/MS); details: mouse, in vivo, 2 hour timepoint after oral gavage at 20 mg/Kg
Method: 100 mL ACN and 5 μL of 10 mM carbutamide in DMSO (ACN with 135 ng/mL carbutamide MS internal standard).
A 1 mg/mL of test compound in 10 mM NH4HCO3 was prepared and diluted 10-fold to give a 100,000 ng/mL stock solution. A series of 10-fold dilutions of the 100,000 ng/mL stock solution with 10 mM NH4HCO3 gave concentrations of 10,000, 1,000, 100 and 10 ng/mL. The 100,000 ng/mL stock solution was diluted to 3:7 with 10 mM NH4HCO3 to give a concentration of 30,000 ng/mL and a series of 10-fold dilutions gave concentrations of 3,000, 300, 30 and 3 ng/mL.
20 μL of test compound-containing solution and 160 μL precipitation solution were added to 20 μL of mouse plasma in a low binding Eppendorf tube. […]
The samples were analysed on an AB Sciex 4000QTrap MS with 2 Shimadzu Nexera LC-30AD Solvent Delivery Units, Shimadzu Nexera SIL-30AC Auto-Sampler, Shimadzu Prominence DGU-20A5 Degasser, Shimadzu Prominence CBM-20A System Controller and Shimadzu Prominence CTO-20A Column Oven. […] The peak areas from the SRM data for carbutamide and test compound were analysed using the AB Sciex's Analyst software using the Quantitation Wizard. The peak area was plotted against the ng/mL concentration in 20 μL 3 to 30,000 ng/mL test compound solutions and the lower and upper range of linear response was determined. […]

With `O=C(Nc1c2c(cc3c1CCC3)CCC2)NS(=O)(=O)c1ccco1` the concentration at 2 h [1] was 1340 ng/g and the concentration at 2 h [2] was 66.3 µg/mL.
